This is an account of results in BindingDB's records for doi:10.1021/jm011020u (Instituto De Quimica Medica (Csic), 2002).

By UniProt entry, the sequences of proteins in these tests, tags left out. Where a name states a change or a piece, a line headed by the entry shows the natural chain unless it says otherwise.
UniProt G1T8E2: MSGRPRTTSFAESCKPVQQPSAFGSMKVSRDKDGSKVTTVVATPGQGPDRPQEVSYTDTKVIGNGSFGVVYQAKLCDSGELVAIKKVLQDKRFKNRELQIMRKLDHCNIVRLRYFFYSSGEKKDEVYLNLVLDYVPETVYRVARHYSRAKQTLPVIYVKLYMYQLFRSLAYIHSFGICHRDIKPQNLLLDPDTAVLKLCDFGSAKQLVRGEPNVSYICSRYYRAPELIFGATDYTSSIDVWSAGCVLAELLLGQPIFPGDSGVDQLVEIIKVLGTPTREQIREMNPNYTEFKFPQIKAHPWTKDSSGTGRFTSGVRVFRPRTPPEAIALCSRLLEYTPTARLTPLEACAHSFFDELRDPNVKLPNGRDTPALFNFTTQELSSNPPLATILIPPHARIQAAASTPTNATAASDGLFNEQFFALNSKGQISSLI

In this experiment the target is T1, Glycogen synthase kinase-3 beta [7-25] (Oryctolagus cuniculus, UniProt G1T8E2).
T1 construct: 7-25
The experiment in a line: GSK-3 Inhibition Assay. The settings on record: pH 7.5; 37 °C.

Consider `CCCCn1c(=O)sn(CC)c1=O` [4-butyl-2-ethyl-1,2,4-thiadiazolidine-3,5-dione], for which the half-maximal inhibitory concentration (IC50) (commonly the concentration at which inhibition is half-maximal) turned out to be 70 µM.
